Assay results as given in US20090137600A1, “Antiplatelet agent and process for producing the same” (priority 2004, published 2009).

Assay: Crystal stability on storage at 25° C. and 0%, 52% or 93% RH for 3 days
Format: physicochemical
Design: key to Crystal form (change): No: No change; Yes: Some change
Method: Compounds (1a), (1b), and (1c) as well as various salts of Compound (1a) produced in the Examples as described above were stored at 25° C. and at a relative humidity of 0%, 52%, or 93% for 3 days to evaluate change in weight and crystal form. Change in crystal form was measured in the case of fumarate at a low humidity, and in the case of Compound (1a) and its citrate at a high humidity. The salts of Compound (1a) were produced according to the method of Example 3.

Question: Which “Crystal form (change)” value (0% RH) does the source give for Succinate here?
Answer: Its value is “No”.

Question: What about the “Weight change (%)” value (0% RH) of the same substance?
Answer: The value was 0.00%.

Question: What about the “Crystal form (change)” value (52% RH) of the same substance?
Answer: The value was “No”.

Question: What about the “Weight change (%)” value (52% RH) of the same substance?
Answer: Its value is 0.97%.

Question: And the “Crystal form (change)” value (93% RH)?
Answer: The value was “No”.

Question: What about the “Weight change (%)” value (93% RH) of the same substance?
Answer: Its value is 1.07%.
